One series concerns WI38. Conditions: MTT, 24 hours with peptide; for WI38 LD50: normal fibroblast line; for LD50 WI38: WI38 normal lung fibroblast line.
For series [1], the system named is human red blood cells (RBC). In kind it is cell-based. Conditions: hemolytic assay, concentration at 50% hemolysis, 1 hour at 37° C. The protocol:
This hemolytic assay is based upon that presented in Journal of Peptide Research 53: 82-90 (1999). […] All procedures were performed according to safety protocols pertaining to the handling and disposal of human body fluids.
Red blood cells (RBCs) were washed three times with PBS (35 mM phosphate buffer 0.15 M NaCl, pH 7.0). RBCs suspended in PBS (0.4% (v/v); about 10 ml per 15 peptides) were prepared. Suspensions (100 μl) were aliquoted to each sample and control tube. Serially diluted peptide solutions (100 μl) were pipetted into the sample tubes. Negative control tubes contained 100 μl PBS; positive control tubes contained 100 μl 1% Triton-X100 detergent. All tubes were incubated for 1 hour at 37° C. The tubes were removed from the incubator and centrifuged at 1000 g for 5 minutes. Supernatant (100 μl) was pipetted to a 96-well polyvinyl chloride plate. The absorbance at 414 nm (A414) was measured, and used to calculate the percent hemolysis according to the following formula. [formula]

“ILPWKWPWWPWRR-COOH [P91, reference compound]”: in the series on WI38, the “WI38 LD50” value was found to be 9 µg/mL and the “LD50 WI38” value came to 9 µg/mL. Further, in series [1], the LD50 came to 40 µg/mL.

Regarding “GIGKFLKKAKKFGKAFVKILKK-NH2 [P42, reference compound]”, in the series on WI38, the “WI38 LD50” value amounted to 67 µg/mL and the “LD50 WI38” value was 67 µg/mL. The LD50 in series [1] turned out to be 300 µg/mL.

FAKALKALLKALKAL-NH2 [P64]: in the series on WI38, the “WI38 LD50” value came out at 37 µg/mL and the “LD50 WI38” value was found to be 37 µg/mL. The LD50 in series [1] was found to be 6 µg/mL.

Turning to VAKKLAKLAKKLAKLAL-NH2 [P50], in the series with WI38, the “WI38 LD50” value was 43 µg/mL and the “LD50 WI38” value was found to be 43 µg/mL. The LD50 in series [1] was determined as 420 µg/mL.

Values taken from patent publication US20050209157A1, “Short bioactive peptides and methods for their use” (priority 2001, published 2005).
